Measurements from ChEMBL document CHEMBL1125471, “Isopropyl and phenyl esters of 3 beta-(4-substituted phenyl)tropan-2 beta-carboxylic acids. Potent and selective compounds for the dopamine transporter” (J Med Chem, 1992).

By UniProt entry, the sequences of proteins in these tests, tags left out.
UniProt P31652, whole entry: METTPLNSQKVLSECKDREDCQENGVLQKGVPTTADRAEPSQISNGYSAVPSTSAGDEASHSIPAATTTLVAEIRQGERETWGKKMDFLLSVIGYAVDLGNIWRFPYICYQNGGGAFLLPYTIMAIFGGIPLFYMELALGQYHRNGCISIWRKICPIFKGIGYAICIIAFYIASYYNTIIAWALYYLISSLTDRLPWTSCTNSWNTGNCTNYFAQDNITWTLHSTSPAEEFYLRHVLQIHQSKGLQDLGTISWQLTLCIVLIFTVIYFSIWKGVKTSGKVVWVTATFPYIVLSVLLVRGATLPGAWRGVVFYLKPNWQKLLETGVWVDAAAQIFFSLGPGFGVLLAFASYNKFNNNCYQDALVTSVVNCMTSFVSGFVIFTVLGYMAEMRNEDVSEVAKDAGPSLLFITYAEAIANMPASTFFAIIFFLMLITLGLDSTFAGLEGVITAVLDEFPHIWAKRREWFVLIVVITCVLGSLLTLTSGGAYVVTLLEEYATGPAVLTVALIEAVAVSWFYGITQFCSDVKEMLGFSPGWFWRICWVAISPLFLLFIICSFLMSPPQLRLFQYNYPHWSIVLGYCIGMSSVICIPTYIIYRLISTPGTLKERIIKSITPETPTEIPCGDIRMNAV

Biological target: Sodium-dependent serotonin transporter (Rattus norvegicus, UniProt P31652)
Assay: Inhibition of [3H]paroxetine binding to Serotonin transporter

Row | Structure (SMILES) | IC50 [nM]
1 | COC(=O)[C@@H]1C2CC[C@H](C[C@@H]1c1ccccc1)N2C | 2000
2 | COC(=O)[C@H]1[C@@H](OC(=O)c2ccccc2)C[C@@H]2CC[C@H]1N2C [COCAINE] | 1060
